Amino acid sequences for entries named in this document (tags omitted). A change or cut given only in a name is not applied to a line headed by its entry.
UniProt Q12809: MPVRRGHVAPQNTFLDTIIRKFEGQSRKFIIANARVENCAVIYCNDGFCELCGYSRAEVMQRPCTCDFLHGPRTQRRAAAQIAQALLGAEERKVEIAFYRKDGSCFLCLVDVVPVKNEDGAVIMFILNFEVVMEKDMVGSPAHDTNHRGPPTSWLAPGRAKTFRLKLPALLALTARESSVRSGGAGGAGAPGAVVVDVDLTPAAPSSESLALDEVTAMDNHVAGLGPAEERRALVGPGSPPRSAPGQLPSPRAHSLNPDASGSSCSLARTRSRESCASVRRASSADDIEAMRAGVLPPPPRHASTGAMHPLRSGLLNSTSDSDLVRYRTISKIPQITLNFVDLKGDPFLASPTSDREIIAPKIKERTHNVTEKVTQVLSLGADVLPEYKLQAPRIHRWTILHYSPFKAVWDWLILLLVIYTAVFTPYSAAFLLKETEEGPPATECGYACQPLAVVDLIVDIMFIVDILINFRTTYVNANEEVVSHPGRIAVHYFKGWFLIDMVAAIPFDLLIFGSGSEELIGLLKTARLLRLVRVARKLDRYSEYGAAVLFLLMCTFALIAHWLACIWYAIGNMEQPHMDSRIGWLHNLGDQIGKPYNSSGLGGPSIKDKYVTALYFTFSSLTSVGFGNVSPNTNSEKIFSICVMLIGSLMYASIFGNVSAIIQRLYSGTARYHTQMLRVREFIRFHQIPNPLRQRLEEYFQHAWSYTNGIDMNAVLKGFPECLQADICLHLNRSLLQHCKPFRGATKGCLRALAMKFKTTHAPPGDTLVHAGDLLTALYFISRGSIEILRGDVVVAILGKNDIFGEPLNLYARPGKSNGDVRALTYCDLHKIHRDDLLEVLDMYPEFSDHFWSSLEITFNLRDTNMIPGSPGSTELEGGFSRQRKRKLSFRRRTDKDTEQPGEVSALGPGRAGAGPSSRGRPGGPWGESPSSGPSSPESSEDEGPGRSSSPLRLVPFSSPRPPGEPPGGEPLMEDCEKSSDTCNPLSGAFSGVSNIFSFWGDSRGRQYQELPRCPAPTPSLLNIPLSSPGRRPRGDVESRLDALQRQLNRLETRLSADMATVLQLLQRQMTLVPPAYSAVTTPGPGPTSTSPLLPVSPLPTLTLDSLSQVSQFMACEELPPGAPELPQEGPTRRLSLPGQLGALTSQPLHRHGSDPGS

In article PMC6856717, “Potent hERG channel inhibition by sarizotan, an investigative treatment for Rett Syndrome” (Journal of Molecular and Cellular Cardiology, 2019):

Target: T1, hERG potassium channel (wild-type) (Homo sapiens, UniProt Q12809)
T1 construct: gene KCNH2
Test: cell-based

Structure (SMILES): Fc1ccc(-c2cncc(CNC[C@H]3CCc4ccccc4O3)c2)cc1 [sarizotan]
- IC50: 183 ± 51 nM
